Test results published in patent EP0604352B1, “Aryl-substituted heterocyclic compounds” (N[…]/S, priority 1992, dated 1994).

The chains behind the UniProt entries cited, without tags or fusion partners.
UniProt P23977, whole entry: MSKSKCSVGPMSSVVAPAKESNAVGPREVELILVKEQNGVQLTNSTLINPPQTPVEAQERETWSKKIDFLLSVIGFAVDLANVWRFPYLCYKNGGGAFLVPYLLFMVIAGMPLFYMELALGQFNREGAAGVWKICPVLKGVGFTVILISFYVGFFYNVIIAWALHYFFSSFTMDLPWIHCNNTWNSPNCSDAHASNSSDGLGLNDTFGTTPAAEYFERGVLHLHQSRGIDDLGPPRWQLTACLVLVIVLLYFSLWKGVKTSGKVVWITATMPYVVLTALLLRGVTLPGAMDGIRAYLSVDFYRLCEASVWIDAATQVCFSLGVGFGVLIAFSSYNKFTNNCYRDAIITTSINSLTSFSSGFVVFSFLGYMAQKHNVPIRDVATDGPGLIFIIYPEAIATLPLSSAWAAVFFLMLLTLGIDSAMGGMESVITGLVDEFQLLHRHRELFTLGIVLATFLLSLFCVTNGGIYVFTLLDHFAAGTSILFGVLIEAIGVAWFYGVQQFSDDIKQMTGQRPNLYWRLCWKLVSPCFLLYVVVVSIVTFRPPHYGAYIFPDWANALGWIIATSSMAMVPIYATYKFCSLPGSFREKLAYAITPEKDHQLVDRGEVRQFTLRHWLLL

Target: T1, reuptake of dopamine in synaptosomes of rat forebrain (Rattus norvegicus, UniProt P23977)
T1 construct: from tissue; host or cells: whole forebrain of male Wistar rats (crude synaptosomal supernatant)
Test: inhibition of reuptake of dopamine (3H-dopamine) in synaptosomes
Type: biochemical
Settings: ratio to Win 35,428

Question: Which “times less potent as compared to the cis isomer (Win 35,428) as a dopamine reuptake inhibitor” value does the source give for COC(=O)[C@@H]1[C@@H](c2ccc(F)cc2)C[C@@H]2CC[C@H]1N2C [trans isomer of Win 35,428, (1R,2R,3S)-2-carbomethoxy-3-(4-fluorophenyl)tropane, reference compound] here?
Answer: The value was ~50 times.
